Data published in patent US12161743B2, “Chlorhexidine-cyclamate complexes and oral care compositions comprising the same” (Colgate-Palmolive Company, priority 2017, dated 2024).

Conditions: qualitative statement, no method described

## chlorhexidine-cyclamate complex [CHC]
  solubility in water: largely insoluble in water
